Key:
maize seedlings = settings: in vivo
rice = settings: 0.1 μM irrigation and 0.001-0.1 μM spraying of fluridone

In the case of fluridone, the “morphology / appearance of treated seedlings” value (maize seedlings) is reported as “white with green tips” and the “bleaching of the leaves” value (rice) is reported as “did not occur”.

— patent publication US20090178158A1, “RESISTANCE AGAINST PARASITIC WEEDS” (Plant Research International B.V., priority 2005, published 2009)
